Measurements reported in US20190388377A1, “COMPOSITIONS AND METHODS FOR THE TREATMENT OF LIVER DISEASES AND DISORDERS” (AXCELLA HEALTH INC., priority 2018, published 2019).

System: primary human hepatocytes
Assay: Intracellular lipid accumulation after 72 h by fluorescence microscopy, PHH model for NASH, Example 2
Format: cell-based
Conditions: donor 1, FFA+TNFα, AA Conc. 25X
Protocol: PHH from two healthy human donors (Lonza, TRL) were seeded on day 0 at density of 6e04 cells in 96 well optical microplates (Thermofisher) in hepatocyte plating media (William's E medium, WEM) (Gibco) supplemented with 10% heat-inactivated FBS (Atlanta Bio), 2 mM Glutamax (Gibco), and 0.2% Primocin (InVivoGen) and incubated for 6 hours at 37° C., 5% CO2. After 6 hours, cells were washed twice and incubated overnight at 37° C., 5% CO2 with Hepatocytes defined medium (Corning) supplemented with 2 mM Glutamax (Gibco), and 1× Penicillin/Streptomycin. On day 1, cells were washed twice and incubated for 24 h in the hepatocyte culture media in the same conditions described above. […]
After 72 hours, cells were washed twice in 100 ul PBS 1× (Gibco), fixed with 4% Paraformaldehyde, and washed twice with PBS 1× (100 ul). […] The LipidTOX™ neutral lipid stain has an extremely high affinity for neutral lipid droplets that was detected by fluorescence microscopy using a high content imager (Molecular Devices). Data was normalized to the cell concentration determined by nuclei count. Images were analyzed and total lipid area was calculated using granularity module in MetaXpress 6 software. […]

N=C(N)NCCC[C@H](N)C(=O)O [R, L-arginine]
Lipid Median (median fold change from control): −0.007
